Laboratory results taken from patent US5103018A, “Mitomycin derivatives” (Kyowa Hakko Kogyo Kabushiki Kaisha, priority 1986, dated 1992).

Columns and labels:
Acute toxicity = assay type: in vivo, mice (ddy); details: mouse, in vivo, ip; ddy mice, single i.p., 14 days, Behren Korber's method
ddy mice = assay: Acute toxicity; assay type: in vivo

Compound | LD50 at 336 h (Acute toxicity) [mg/kg] | LD50 ip (ddy mice; ddy mice, single i.p., 14 days, Behren Korber's method) [mg/kg] | (C.I.)* = (LD50/ED50)/[(LD50/ED50) of MMC1] (ddy mice; relative to mitomycin C, ip)
CO[C@@]12[C@H](COC(N)=O)C3=C(C(=O)C(C)=C(NCCSSCCS(=O)(=O)O)C3=O)N1C[C@@H]1N[C@@H]12 [Compound 36, 7-N-[2-[(2-sulfoethyl)dithio]ethyl]mitomycin C] | 37.5 | – | –
CO[C@@]12[C@H](COC(N)=O)C3=C(C(=O)C(C)=C(NCCSSCCNC(=O)[C@@H](N)CCC(=O)O)C3=O)N1C[C@@H]1N[C@@H]12 [Compound 9, 7-N-[2-[[2-(N^2 -L-glutamino)ethyl]dithio]ethyl]mitomycin C] | 37.5 | – | –
CCOC(=O)CNC(=O)C(C)SSCCNC1=C(C)C(=O)C2=C(C1=O)[C@@H](COC(N)=O)[C@@]1(OC)[C@H]3N[C@H]3CN21 (stereo partly shown) [Compound 30, 7-N-[2-[[1-[[(ethoxycarbonyl)methyl]carbamoyl]ethyl]dithio]ethyl]mitomycin C] | 37.5 | – | –
CO[C@@]12[C@H](COC(N)=O)C3=C(C(=O)C(C)=C(NCCSSCc4c[nH]c(=O)[nH]c4=O)C3=O)N1C[C@@H]1N[C@@H]12 [Compound 37, 7-N-[2-[[(2,4-dioxopyrimidin-5-yl)methyl]dithio]ethyl]mitomycin C] | 37.5 | – | –
7-N-[2-[[2-[[(1S)-5-amino-1-carboxypentyl]carbamoyl]ethyl]dithio]ethyl]mitomycin C [Compound 23] | – | 37.5 | 2.14
CO[C@@]12[C@H](COC(N)=O)C3=C(C(=O)C(C)=C(NCCSSCCC(=O)N[C@@H](CCCN)C(=O)O)C3=O)N1C[C@@H]1N[C@@H]12 [Compound 22, 7-N-[2-[[2-[[(1S)-4-amino-1-carboxybutyl]carbamoyl]ethyl]dithio]ethyl]mitomycin C] | 37.5 | – | –
